Target: T1, human H1 receptor (Homo sapiens, UniProt P35367)
T1 construct: purchased Euroscreen SA, Brussels, Belgium ES-390-M; host or cells: CHO-K1 cells (membranes)
Assay: Histamine H1 receptor binding, competition displacement of [3H]-pyrilamine
Settings: displacement of 1 nM [3H]-pyrilamine; membranes from recombinant CHO-K1 cells expressing the human H1 receptor; 1 hour at room temperature

Sequences of proteins named here, by UniProt entry; tags and fusion partners are left off.
UniProt P35367, whole entry: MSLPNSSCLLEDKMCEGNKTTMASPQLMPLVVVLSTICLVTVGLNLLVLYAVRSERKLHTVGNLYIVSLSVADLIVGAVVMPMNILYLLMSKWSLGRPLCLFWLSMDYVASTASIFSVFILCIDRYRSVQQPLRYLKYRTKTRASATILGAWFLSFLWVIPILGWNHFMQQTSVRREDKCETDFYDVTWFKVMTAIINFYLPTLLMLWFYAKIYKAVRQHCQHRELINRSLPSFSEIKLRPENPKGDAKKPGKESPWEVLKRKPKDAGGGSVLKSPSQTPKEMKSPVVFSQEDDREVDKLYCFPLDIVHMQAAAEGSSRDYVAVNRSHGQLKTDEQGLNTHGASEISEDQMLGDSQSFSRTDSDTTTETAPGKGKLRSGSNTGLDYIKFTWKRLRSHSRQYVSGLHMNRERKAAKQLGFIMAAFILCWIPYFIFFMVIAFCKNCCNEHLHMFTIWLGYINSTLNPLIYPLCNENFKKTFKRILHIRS

“[2-(4-{[4-(3,4-dichlorophenoxy)piperidin-1-yl]methyl}piperidin-1-yl)-4-methylphenoxy]acetic acid acetate [Example 43]” was tested, and the “H1 pKi/[1328_S]” value was 7.8.

— patent publication US20080262037A1, “Piperidine Derivatives for the Treatment of Chemokine Mediated Disease” (ASTRAZENECA AB, priority 2004, published 2008)
